Data taken from patent US20240360179A1, “STAPLED PEPTIDES AND METHODS THEREOF” (FOG PHARMACEUTICALS, INC., priority 2021, published 2024).

Sequences of proteins named here, by UniProt entry; tags and fusion partners are left off.
UniProt P35222, whole entry: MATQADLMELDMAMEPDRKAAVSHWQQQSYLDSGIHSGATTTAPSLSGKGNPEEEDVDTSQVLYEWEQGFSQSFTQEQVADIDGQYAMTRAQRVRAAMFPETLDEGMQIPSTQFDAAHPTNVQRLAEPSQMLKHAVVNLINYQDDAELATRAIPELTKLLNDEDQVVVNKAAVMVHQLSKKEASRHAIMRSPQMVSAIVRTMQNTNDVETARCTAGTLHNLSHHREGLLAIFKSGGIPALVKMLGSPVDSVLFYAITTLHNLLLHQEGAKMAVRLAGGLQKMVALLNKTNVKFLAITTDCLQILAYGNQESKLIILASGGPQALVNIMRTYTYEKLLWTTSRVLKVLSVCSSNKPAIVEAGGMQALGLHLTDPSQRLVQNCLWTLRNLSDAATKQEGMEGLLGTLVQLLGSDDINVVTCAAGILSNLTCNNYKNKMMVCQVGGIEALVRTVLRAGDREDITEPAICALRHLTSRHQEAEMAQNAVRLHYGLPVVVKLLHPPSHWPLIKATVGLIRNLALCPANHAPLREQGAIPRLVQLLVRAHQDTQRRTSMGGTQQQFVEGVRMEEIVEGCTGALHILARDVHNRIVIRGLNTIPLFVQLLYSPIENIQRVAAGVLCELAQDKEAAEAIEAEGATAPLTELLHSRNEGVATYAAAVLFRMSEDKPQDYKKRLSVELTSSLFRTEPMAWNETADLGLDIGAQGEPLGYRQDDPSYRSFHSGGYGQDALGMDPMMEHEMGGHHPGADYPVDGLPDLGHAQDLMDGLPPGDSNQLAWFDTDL

Legend:
[1] = target: T1, full-length B-Catenin (Uniprot ID P35222) (Homo sapiens, UniProt P35222); assay: biochemical; type: binding; conditions: beta-Catenin FP IC50 (nM), competition fluorescence polarization
T1 construct: 10 nM full-length B-Catenin (Uniprot ID P35222)

[2] = target: beta-catenin/TCF4 interaction (Homo sapiens, UniProt P35222); assay: cell-based; set-up: host or cells: HEK293; conditions: NanoBRET Abs IC50 (uM)

IC50 [1] [nM] | IC50 ([2]; absolute IC50) [µM] | IC50 [2] [µM] | SMILES
< 50 | 3 to 10 |  | CC(=O)N1CCC[C@]12CC=CCCCC1(CCCC=CCCCOC(=O)N3CC[C@@]4(C3)NC(=O)[C@H](CCCCNC(=O)CC[C@@H](C(=O)N[C@@H](C)C(N)=O)NC(=O)[C@H](Cc3csc5ccccc35)NC(=O)[C@H](Cc3ccsc3)NC4=O)NC(=O)[C@H](Cc3cccc(C(F)(F)F)c3)NC(=O)[C@H](C)NC(=O)C(C)(C)NC(=O)[C@H](Cc3cccc(C(=O)O)c3)NC(=O)[C@H](CC(=O)O)NC1=O)NC(=O)[C@H](CC(C)(C)C)NC(=O)[C@H](CC(=O)O)NC2=O (relative stereo) [I-369, Ac-PL3-Asp-Npg-B5-Asp-3COOHF-Aib-Ala-3F3MeF-Lys*3-PyrS2-3Thi-BztA-GlnR*3-Ala-NH2]
< 50 |  | 3 to 10 | CCCC[C@@H]1NC(=O)[C@]23CCN(C2)C(=O)OCCCC=CCCCC2(CCCC=CC[C@]4(CCCN4C(C)=O)C(=O)N[C@@H](CC(=O)O)C(=O)N[C@@H](CC(C)(C)C)C(=O)N2)C(=O)N[C@@H](CC(=O)O)C(=O)N[C@@H](Cc2cccc(C(=O)O)c2)C(=O)NC(C)(C)C(=O)N[C@@H](C)C(=O)N[C@@H](Cc2ccccc2)C(=O)N[C@@H](CCCCNC(=O)CC[C@@H](C(=O)N[C@@H](C)C(N)=O)NC(=O)[C@H](Cc2csc4ccccc24)NC1=O)C(=O)N3 (single isomer, unassigned) [I-271, Ac-PL3-Asp-Npg-B5-Asp-3COOHF-Aib-Ala-Phe-Lys*3-PyrS2-nLeu-BztA-GlnR*3-Ala-NH2]
< 50 | > 10 |  | CC(=O)N1CCC[C@]12CC=CCCCC1(CCCC=CCCCOC(=O)N3CC[C@@]4(C3)NC(=O)[C@H](CCCCNC(=O)CC[C@@H](C(=O)N[C@@H](C)C(=O)O)NC(=O)[C@H](Cc3csc5ccccc35)NC(=O)[C@H](Cc3ccccc3C(=O)O)NC4=O)NC(=O)[C@H](Cc3ccccc3)NC(=O)[C@H](C)NC(=O)C(C)(C)NC(=O)[C@H](Cc3cccc(C(=O)O)c3)NC(=O)[C@H](CC(=O)O)NC1=O)NC(=O)[C@H](CC(C)(C)C)NC(=O)[C@H](CC(=O)O)NC2=O (relative stereo) [I-349, Ac-PL3-Asp-Npg-B5-Asp-3COOHF-Aib-Ala-Phe-Lys*3-PyrS2-2COOHF-BztA-GlnR*3-Ala-OH]
50 to 200 |  | > 10 | CC(=O)N1CCC[C@]12CC=CCCCC1(CCCC=CCCCOC(=O)N3CC[C@@]4(C3)NC(=O)[C@H](CCCCNC(=O)CC[C@@H](C(=O)N[C@@H](C)C(N)=O)NC(=O)[C@H](Cc3csc5ccccc35)NC(=O)[C@H](Cc3ccccc3C(F)(F)F)NC4=O)NC(=O)[C@H](Cc3ccccc3)NC(=O)[C@H](C)NC(=O)C(C)(C)NC(=O)[C@H]([C@@H](C)O)NC(=O)[C@H](CC(=O)O)NC1=O)NC(=O)[C@H](CC(C)(C)C)NC(=O)[C@H](CC(=O)O)NC2=O (relative stereo) [I-200, Ac-PL3-Asp-Npg-B5-Asp-Thr-Aib-Ala-Phe-Lys*3-PyrS2-2F3MeF-BztA-GlnR*3-Ala-NH2]
< 50 |  | > 10 | CC(=O)N1CCC[C@]12CC=CCCCC1(CCCC=CCCCOC(=O)N3CC[C@@]4(C3)NC(=O)[C@H](CCCCNC(=O)CC[C@@H](C(=O)N[C@@H](CC(C)C)C(N)=O)NC(=O)[C@H](Cc3csc5ccccc35)NC(=O)[C@H](Cc3ccccc3C(F)(F)F)NC4=O)NC(=O)[C@H](Cc3ccccc3)NC(=O)[C@H](C)NC(=O)[C@H](CC(C)(C)C)NC(=O)[C@H](Cc3cccc(C(=O)O)c3)NC(=O)[C@H](CC(=O)O)NC1=O)NC(=O)[C@H](CC(C)(C)C)NC(=O)[C@H](CC(=O)O)NC2=O (single isomer, unassigned) [I-108, Ac-PL3-Asp-Npg-B5-Asp-3COOHF-Npg-Ala-Phe-Lys*3-PyrS2-2F3MeF-BztA-GlnR*3-Leu-NH2]
< 50 | < 1.5 |  | CC(=O)N1CCC[C@]12CC=CCCCC1(CCCC=CCCCOC(=O)N3CC[C@@]4(C3)NC(=O)[C@H](CCCCNC(=O)CC[C@@H](C(=O)N[C@H](C(=O)N[C@@H](CO)C(N)=O)[C@@H](C)O)NC(=O)[C@H](Cc3csc5ccccc35)NC(=O)[C@H](Cc3ccsc3)NC4=O)NC(=O)[C@H](Cc3ccccc3)NC(=O)[C@H](C)NC(=O)C(C)(C)NC(=O)[C@H](Cc3cccc(C(=O)O)c3)NC(=O)[C@H](CC(=O)O)NC1=O)NC(=O)[C@H](CC(C)(C)C)NC(=O)[C@H](CC(=O)O)NC2=O (relative stereo) [I-401, Ac-PL3-Asp-Npg-B5-Asp-3COOHF-Aib-Ala-Phe-Lys*3-PyrS2-3Thi-BztA-GlnR*3-Thr-Ser-NH2]
< 50 | 1.5 to 3 |  | CC(=O)N1CCC[C@]12CC=CCCCC1(CCCC=CCCCOC(=O)N3CC[C@@]4(C3)NC(=O)[C@H](CCCCNC(=O)CC[C@@H](C(=O)N[C@@H](C)C(N)=O)NC(=O)[C@H](Cc3csc5ccccc35)NC(=O)[C@H](Cc3ccsc3)NC4=O)NC(=O)[C@H](Cc3ccccc3)NC(=O)[C@H](C)NC(=O)C3(CCCC3)NC(=O)[C@H](Cc3cccc(C(=O)O)c3)NC(=O)[C@H](CC(=O)O)NC1=O)NC(=O)[C@H](CC(C)(C)C)NC(=O)[C@H](CC(=O)O)NC2=O (single isomer, unassigned) [I-382, Ac-PL3-Asp-Npg-B5-Asp-3COOHF-CyLeu-Ala-Phe-Lys*3-PyrS2-3Thi-BztA-GlnR*3-Ala-NH2]
< 50 |  | 1.5 to 3 | CC(=O)N1CCC[C@]12CC=CCCCC1(CCCC=CCCCOC(=O)N3CC[C@@]4(C3)NC(=O)[C@H](CCCCNC(=O)CC[C@@H](C(=O)N[C@@H](C)C(N)=O)NC(=O)[C@H](Cc3csc5ccccc35)NC(=O)[C@H](Cc3ccsc3)NC4=O)NC(=O)[C@H](Cc3ccccc3)NC(=O)[C@H](C)NC(=O)[C@H](C)NC(=O)[C@H](Cc3cccc(C(=O)O)c3)NC(=O)[C@H](CC(=O)O)NC1=O)NC(=O)[C@H](CC(C)(C)C)NC(=O)[C@H](CC(=O)O)NC2=O (relative stereo) [I-42, Ac-PL3-Asp-Npg-B5-Asp-3COOHF-Ala-Ala-Phe-Lys*3-PyrS2-3Thi-BztA-GlnR*3-Ala-NH2]
< 50 |  | 1.5 to 3 | CC(=O)N1CCC[C@]12CC=CCCCC1(CCCC=CCCCOC(=O)N3CC[C@@]4(C3)NC(=O)[C@H](CCCCNC(=O)CC[C@@H](C(=O)N[C@@H](C)C(N)=O)NC(=O)[C@H](Cc3csc5ccccc35)NC(=O)[C@H](Cc3ccccc3C(F)(F)F)NC4=O)NC(=O)[C@H](Cc3ccccc3)NC(=O)[C@H](C)NC(=O)C(C)(C)NC(=O)[C@H](Cc3cccc(C(=O)O)c3)NC(=O)[C@H](CC(=O)O)NC1=O)NC(=O)[C@H](CC(C)(C)C)NC(=O)[C@H](CC(=O)O)NC2=O (single isomer, unassigned) [I-68, Ac-PL3-Asp-Npg-B5-Asp-3COOHF-Aib-Ala-Phe-Lys*3-PyrS2-2F3MeF-BztA-GlnR*3-Ala-NH2]
< 50 | 1.5 to 3 |  | CC(=O)N1CCC[C@]12CC=CCCCC1(CCCC=CCCCOC(=O)N3CC[C@@]4(C3)NC(=O)[C@H](CCCCNC(=O)CC[C@@H](C(=O)N[C@@H](C)C(=O)N[C@@H](CCC(=O)O)C(=O)N[C@@H](C)C(N)=O)NC(=O)[C@H](Cc3csc5ccccc35)NC(=O)[C@H](Cc3ccsc3)NC4=O)NC(=O)[C@H](Cc3ccccc3)NC(=O)[C@H](C)NC(=O)C(C)(C)NC(=O)[C@H](Cc3cccc(C(=O)O)c3)NC(=O)[C@H](CC(=O)O)NC1=O)NC(=O)[C@H](CC(C)(C)C)NC(=O)[C@H](CC(=O)O)NC2=O (relative stereo) [I-343, Ac-PL3-Asp-Npg-B5-Asp-3COOHF-Aib-Ala-Phe-Lys*3-PyrS2-3Thi-BztA-GlnR*3-Ala-Glu-Ala-NH2]
< 50 |  | 3 to 10 | CC(=O)N1CCC[C@]12CC=CCCCC1(CCCC=CCCCOC(=O)N3CC[C@@]4(C3)NC(=O)[C@H](Cc3cn(nn3)CCCC[C@@H](C(N)=O)NC(=O)[C@H](Cc3csc5ccccc35)NC(=O)[C@H](Cc3ccsc3)NC4=O)NC(=O)[C@H](Cc3ccccc3)NC(=O)[C@H](C)NC(=O)[C@H](C)NC(=O)[C@H](CC(=O)O)NC(=O)[C@H](CC(=O)O)NC1=O)NC(=O)[C@H](CC(C)(C)C)NC(=O)[C@H](CC(=O)O)NC2=O (stereo partly drawn) [I-23, Ac-PL3-Asp-Npg-B5-Asp-Asp-Ala-Ala-Phe-sAla*3-PyrS2-3Thi-BztA-TriAzLys*3-NH2]
> 1000 | > 10 |  | CC(=O)N1CCC[C@]12CC=CCCCC1(CCCC=CCCCOC(=O)N3CC[C@@]4(C3)NC(=O)[C@H](CCCCNC(=O)CC[C@@H](C(=O)N[C@@H](C)C(N)=O)NC(=O)[C@H](Cc3csc5ccccc35)NC(=O)[C@H](Cc3ccsc3)NC4=O)NC(=O)[C@H](Cc3ccccc3)NC(=O)[C@H](C)NC(=O)C(C)(C)NC(=O)[C@H](Cc3cccc(C(=O)O)c3)NC(=O)[C@H](CCC(=O)O)NC1=O)NC(=O)[C@H](CC(C)(C)C)NC(=O)[C@H](CCC(=O)O)NC2=O (relative stereo) [I-470, Ac-PL3-Glu-Npg-B5-Glu-3COOHF-Aib-Ala-Phe-Lys*3-PyrS2-3Thi-BztA-GlnR*3-Ala-NH2]
< 50 | 1.5 to 3 |  | CC(=O)N1CCC[C@]12CC=CCCCC1(CCCC=CCCCOC(=O)N3CC[C@@]4(C3)NC(=O)[C@H](Cc3cn(nn3)CCCC[C@@H](C(=O)N[C@@H](C)C(N)=O)NC(=O)[C@H](Cc3csc5ccccc35)NC(=O)[C@H](Cc3ccsc3)NC4=O)NC(=O)[C@H](Cc3ccccc3)NC(=O)[C@H](C)NC(=O)C(C)(C)NC(=O)[C@H](Cc3cccc(C(=O)O)c3)NC(=O)[C@H](CC(=O)O)NC1=O)NC(=O)[C@H](CC(C)(C)C)NC(=O)[C@H](CC(=O)O)NC2=O (stereo partly drawn) [I-336, Ac-PL3-Asp-Npg-B5-Asp-3COOHF-Aib-Ala-Phe-sAla*3-PyrS2-3Thi-BztA-TriAzLys*3-Ala-NH2]
< 50 |  | 1.5 to 3 | CC(=O)N1CCC[C@]12CC=CCCCC1(CCCC=CCCCOC(=O)N3CC[C@@]4(C3)NC(=O)[C@H](CCCCNC(=O)CC[C@@H](C(=O)N[C@@H](CC(C)C)C(=O)N[C@@H](CO)C(N)=O)NC(=O)[C@H](Cc3csc5ccccc35)NC(=O)[C@H](Cc3ccccc3C(F)(F)F)NC4=O)NC(=O)[C@H](Cc3ccccc3)NC(=O)[C@H](C)NC(=O)C(C)(C)NC(=O)[C@H](Cc3cccc(C(=O)O)c3)NC(=O)[C@H](CC(=O)O)NC1=O)NC(=O)[C@H](CC(C)(C)C)NC(=O)[C@H](CC(=O)O)NC2=O (relative stereo) [I-138, Ac-PL3-Asp-Npg-B5-Asp-3COOHF-Aib-Ala-Phe-Lys*3-PyrS2-2F3MeF-BztA-GlnR*3-Leu-Ser-NH2]
